Reference: ChEMBL document CHEMBL4477224, “Antidiabetic effect, antioxidant activity, and toxicity of 3',4'-Di-O-acetyl-cis-khellactone in Streptozotocin-induced diabetic rats” (Bioorg Med Chem Lett, 2016)

Experiment: Mutagenicity in Salmonella typhimurium TA100 assessed as mutagenic index at 0.007 uM/plate after 48 hrs in absence of S9 fraction by Ames test relative to control
Conditions: salmonella enterica subsp. enterica serovar typhimurium, s9, 48 h

Question: With `CN(N=O)C(=N)N[N+](=O)[O-]` as the molecule, how does the Ratio read?
Answer: Its Ratio is 22.9.
